Drawing on PubChem BioAssay AID651800 (The Scripps Research Institute Molecular Screening Center, 2012), this text covers inhibition for 29 molecules.

This is a selection; strong and weak results do not stand in their true shares. Calls of active or inactive are those of the source. Rule as the data show it: active = inhibition above about 19%; inactive = the rest.

For this assay, the system named is T-cell receptor (TCR). Nature of the assay: inhibitors of human TCR-CD3 interaction, primary screen, biochemical, fluorescence, TAMRA-labeled TCR probe (AID 651800).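 Also: recombinant mutant TCR 2C K166C tagged with TAMRA read by polarization; 0% = receptor in buffer alone and 100% = receptor with positive control.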 The settings on record: at 9.4 µM, stronger effect = higher value.
On to `CCCC1OP(=O)(Nc2ccccc2)OCC1CC` (centres undefined), for which the inhibition is inactive: -10.3%.
The same measure for `O=C(/C=C/c1ccccc1)OC1CN2CCC1CC2` (centres undefined): inactive: 1.4%; for `CC1CCC(C(C)C)C(OP(=O)(Nc2ccccn2)c2ccccc2)C1` (centres undefined): inactive: -3.15%; for `Cc1ccc(C(=O)OC2CN3CCC2CC3)cc1` (centres undefined): inactive: 8.6%.
The same measure for `Cc1nn(-c2ccccc2)c2c1P(=O)(N1CCOCC1)N(C)C(c1ccccc1)=N2` (centres undefined): inactive: 3.03%; for `Nc1cccc([As](=O)(O)c2ccccc2)c1`: inactive: 2.02%; for `O=[As](O)(c1cccs1)c1cccs1`: inactive: -11.5%.
To `Cc1ccc(OCC(=O)OC2CN3CCC2CC3)cc1` (centres undefined) belongs inactive: 9.35%; to `O=P1(Nc2ccc(Br)cn2)COc2ccccc2OC1`, inactive: 0.48%.
For the molecule `NS(=O)(=O)c1cccc(NC(=O)COC(=O)C(O)(c2ccccc2)c2ccccc2)c1`, the inhibition was inactive: -5%.
The same measure for `Cc1ccc(S(=O)(=O)N(CCCN)CCCc2c(C)nc(N)[nH]c2=O)cc1`: inactive: 2.06%; for `O=P1(Nc2ncccn2)COc2ccccc2OC1`: inactive: -2.51%; for `CC(C)(C)C(=O)NC(Sc1ncccn1)C(Cl)(Cl)Cl` (centres undefined): inactive: -3.28%.
The same measure for `O=P1(N(CCCl)CCCl)NCCC(C(F)(F)F)O1` (centres undefined): inactive: 6.41%; for `Clc1n[nH]nc1-c1nn[nH][15n]1`: inactive: 4.61%.
The same measure for `CCOP(=O)(NC(=NC(C)c1ccccc1)NC(C)c1ccccc1)OCC` (centres undefined): inactive: 0.81%; for `O=P1(Nc2ccccn2)COc2ccccc2OC1`: inactive: 7.87%.
Regarding `CCC1=CC2Cc3nc4ccc(Cl)cc4c(N)c3C(C1)C2` (centres undefined), the inhibition is inactive: -0.36%.
The same measure for `CCOP(=O)(Nc1ccc(C)cn1)OCC`: inactive: 0.39%; for `CN(CCCl)Cc1cc(Cl)c(NC2=NCCN2)c(Cl)c1`: inactive: 3.17%; for `CN(C(=O)Cc1ccc(Cl)c(Cl)c1)C1CCCC[C@@H]1N1CCCC1` (some centres undefined): inactive: -3.2%.
The same measure for `CC(C)/C=N\N=C(\N)N[N+](=O)[O-]`: inactive: -1.06%; for `CN(C(=O)Cc1ccc(Cl)c(Cl)c1)[C@@H]1CCCC[C@H]1N1CCCC1`: inactive: -1.01%.
To `CC1(CBr)Cn2c(nc3ccccc3c2=O)S1` (centres undefined) belongs inactive: -9.56%; to `COc1ccccc1CNC(=O)COC(=O)C(O)(c1ccccc1)c1ccccc1`, inactive: 0.61%.
Consider `c1nnnn1CCn1cnnn1`, for which the inhibition is inactive: -0.17%.
To `CC(C)C(=O)NC(Sc1ccccc1)C(Cl)(Cl)Cl` (centres undefined) belongs inactive: -2.18%.
Regarding `O=P(Nc1nccs1)(c1ccccc1)c1ccccc1`, the inhibition is inactive: 2.61%.
The same measure for `C[C@H]1OP(=O)(Oc2ccccc2)[C@H](O)[C@H](O)[C@H]1N=[N+]=[N-]` (some centres undefined): inactive: 4.76%.
